Values quoted from earlier work as cited in PMC7894237 (Inflammation Research, 2021).

System: CD73
Conditions: intravenous injection

B1: IFNβ1: interferon beta (protein, UniProt P01574 22-187, looked up)
Interferon beta: MSYNLLGFLQRSSNFQCQKLLWQLNGRLEYCLKDRMNFDIPEEIKQLQQFQKEDAALTIYEMLQNIFAIFRQDSSSTGWNETIVENLLANVYHQINHLKTVLEEKLEKEDFTRGKLMSSLHLKRYYGRILHYLKAKEYSHCAWTIVRVEILRNFYFINRLTGYLRN
- CD73 cell expression in pulmonary endothelial cells: up-regulate
